Ki data for three compounds are collected here from ChEMBL document CHEMBL1126680, “Structure-activity relationships of 8-styrylxanthines as A2-selective adenosine antagonists” (J Med Chem, 1993).

The chains behind the UniProt entries cited, without tags or fusion partners. Where a name states a change or a piece, a line headed by the entry shows the natural chain unless it says otherwise.
UniProt P29276: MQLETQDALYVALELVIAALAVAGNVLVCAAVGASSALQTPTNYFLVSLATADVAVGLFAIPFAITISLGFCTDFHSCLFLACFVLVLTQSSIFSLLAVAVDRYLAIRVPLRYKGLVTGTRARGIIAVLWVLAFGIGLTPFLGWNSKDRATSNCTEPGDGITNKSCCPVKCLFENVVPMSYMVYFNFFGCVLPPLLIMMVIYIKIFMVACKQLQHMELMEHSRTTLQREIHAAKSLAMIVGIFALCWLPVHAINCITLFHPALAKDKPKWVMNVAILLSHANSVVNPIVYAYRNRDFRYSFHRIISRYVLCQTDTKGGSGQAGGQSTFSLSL
UniProt P30543: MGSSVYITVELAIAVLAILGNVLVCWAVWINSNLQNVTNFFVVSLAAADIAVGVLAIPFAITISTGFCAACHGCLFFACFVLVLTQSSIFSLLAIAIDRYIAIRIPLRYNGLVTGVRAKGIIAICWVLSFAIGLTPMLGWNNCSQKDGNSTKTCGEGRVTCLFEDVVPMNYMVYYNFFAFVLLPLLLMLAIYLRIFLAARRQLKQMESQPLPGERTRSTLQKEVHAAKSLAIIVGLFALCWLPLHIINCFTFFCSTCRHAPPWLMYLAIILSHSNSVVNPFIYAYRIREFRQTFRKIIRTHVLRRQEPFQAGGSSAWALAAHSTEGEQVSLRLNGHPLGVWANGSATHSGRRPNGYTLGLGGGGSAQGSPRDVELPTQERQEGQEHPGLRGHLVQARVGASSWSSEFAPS

The assay has as its target Adenosine A2 receptor (Rattus norvegicus, UniProt P29276+P30543). Kind of assay: Binding affinity against adenosine A2 receptor in rat brain using [3H]- CGS 21680 as radioligand. Format: tissue-based.
The term Ki denotes the dissociation constant of the complex between target and ligand, obtained from inhibition or displacement. A low value points to higher affinity. In the case of `Cn1c(=O)c2c(nc(/C=C/c3ccccc3)n2C)n(C)c1=O`, the Ki came to 0.094 µM.
The figure for `CCCn1c(=O)c2c(nc(/C=C/c3cccc(Cl)c3)n2C)n(CCC)c1=O` is 0.0613 µM.
For `CCn1c(=O)c2c(nc(/C=C/c3cc(OC)c(OC)c(OC)c3)n2C)n(CC)c1=O` the value was 0.081 µM.
